# Data reported in PubChem BioAssay AID720551 (National Center for Advancing Translational Sciences (NCATS), 2013).
# Chains of the proteins cited; added tags and fusions are not shown. Lines headed by an entry give the natural chain unless they say otherwise; changes in a name come on top.
# UniProt Q12809: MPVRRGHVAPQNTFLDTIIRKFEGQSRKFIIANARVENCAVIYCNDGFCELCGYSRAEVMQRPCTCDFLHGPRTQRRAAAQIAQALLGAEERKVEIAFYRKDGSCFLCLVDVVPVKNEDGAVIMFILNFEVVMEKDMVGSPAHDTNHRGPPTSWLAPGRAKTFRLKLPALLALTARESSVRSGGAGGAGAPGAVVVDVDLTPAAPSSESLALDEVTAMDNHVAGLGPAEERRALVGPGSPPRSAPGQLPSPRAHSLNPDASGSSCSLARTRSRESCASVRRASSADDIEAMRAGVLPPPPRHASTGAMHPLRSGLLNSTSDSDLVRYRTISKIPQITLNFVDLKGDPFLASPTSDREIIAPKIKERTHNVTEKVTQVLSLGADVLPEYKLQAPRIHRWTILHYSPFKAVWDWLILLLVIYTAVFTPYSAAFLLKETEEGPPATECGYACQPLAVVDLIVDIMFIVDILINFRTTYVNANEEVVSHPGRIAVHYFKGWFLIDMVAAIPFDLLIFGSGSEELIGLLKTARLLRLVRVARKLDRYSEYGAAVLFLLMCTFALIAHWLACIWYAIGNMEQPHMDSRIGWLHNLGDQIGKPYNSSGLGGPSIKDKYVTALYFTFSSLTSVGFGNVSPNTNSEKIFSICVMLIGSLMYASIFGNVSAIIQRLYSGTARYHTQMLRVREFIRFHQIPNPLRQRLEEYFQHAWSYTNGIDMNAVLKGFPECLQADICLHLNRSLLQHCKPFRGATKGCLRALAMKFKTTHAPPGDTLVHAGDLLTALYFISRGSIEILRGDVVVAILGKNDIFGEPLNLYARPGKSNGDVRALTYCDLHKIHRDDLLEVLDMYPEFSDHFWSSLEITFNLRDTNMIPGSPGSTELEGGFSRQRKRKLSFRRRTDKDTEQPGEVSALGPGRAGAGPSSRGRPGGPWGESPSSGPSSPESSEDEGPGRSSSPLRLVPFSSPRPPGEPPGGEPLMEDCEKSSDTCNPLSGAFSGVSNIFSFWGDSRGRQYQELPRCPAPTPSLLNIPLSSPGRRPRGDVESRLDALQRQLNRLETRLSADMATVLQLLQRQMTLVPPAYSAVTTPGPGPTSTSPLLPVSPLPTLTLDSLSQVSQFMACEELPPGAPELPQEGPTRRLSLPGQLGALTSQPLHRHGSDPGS
# This is a selection; strong and weak results do not stand in their true shares. Calls of active or inactive are those of the source.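 The calls were made as follows: active = maximum activity change below -70%; inconclusive = maximum activity change between -70% and -50%; inactive = maximum activity change above -50%.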
# Biological target: Voltage-gated inwardly rectifying potassium channel KCNH2 (Homo sapiens) (UniProt Q12809)
# Experiment: qHTS for Inhibitors of KCHN2 3.1: Wildtype qHTS
# Conditions: U2OS, BacMam KCNH2, thallium flux FluxOr; at 1.84 µM, hits give low values
# Excerpt: Many antipsychotic drugs that inhibit the neurotransmitter dopamine also bind to hERG1 channel which might help explain their antipsychotic activity but also produces cardiac side effects. The discovery of the novel KCNH2 3.1 isoform offers a potential new target for the development of antipsychotic drugs without cardiac side effects. This proposal will use a high throughput thallium flux assay developed for KCNH2 to screen compounds that modulate the activity of KCNH2 3.1. The wild type KCNH2 channel will also be screened in parallel to help define the selective modulators of this KCNH2 3.1 potassium channel. The resulting compounds will be validated in electrophysiology experiments. The availability of animal models will allow future testing in vivo for effects on memory and other aspects of animal physiology linked with psychosis. NIH Chemical Genomics Center [NCGC] NIH Molecular Libraries Probe Centers Network [MLPCN] MLPCN Grant: MH096539 Assay Submitter (PI): James Barrow, Johns Hopkins University, Lieber Institute for Brain Development
# U2OS cells were resuspended in cell media containing 10% fetal calf serum (FCS) at a concentration of 2 million cells / mL. The solution was treated with the Wild-type virus at 2.03 x 10^8 / mL and allowed to incubate at room temperature in the dark. After 4 hours of incubation, DMEM + 10% fetal bovine serum (FBS) was added to the cell solution. Three microliter was then dispensed into a 1536 tissue culture treated black assay plates which were incubated overnight at 37 C. Two microliter of loading buffer (HBSS + HEPES + Red40 dye quencher + FluxOr dye) was added and the assay plates were incubated for 45 min at room temperature in the dark. […] A stimulation buffer was added to the plate and the second kinetic read (2 min) was obtained. The rate constant was calculated from the kinetic reads and normalized to the positive and negative DMSO controls.
# % is scaled to controls: 0 for no effect and ±100 for the full control effect.
row,SMILES,activity change
1,COP1(=S)c2c(C)nn(CCC#N)c2N=C(c2ccc(F)cc2)N1C (stereo unspecified),inactive: -7.05%
2,O=C(COc1ccccc1)OC1CN2CCC1CC2 (stereo unspecified),active: -219%
3,O=C(Nc1ccncc1[N+](=O)[O-])c1ccc([N+](=O)[O-])cc1[N+](=O)[O-],inactive: -2.07%
4,O=C(O)C(=O)c1ccc(N(CCCl)CCCl)cc1,active: -122%
5,CCOC(=O)c1ccc(NC(=O)C(C)(CCl)SC)cc1 (stereo unspecified),inactive: -8.65%
6,O=C(OC1CN2CCC1CC2)c1cccc([N+](=O)[O-])c1 (stereo unspecified),inactive: 9.11%
7,CSc1ccc(Nc2c([N+](=O)[O-])cc([N+](=O)[O-])cc2[N+](=O)[O-])cc1,inactive: 8.33%
8,CCC(C)N(CC(C)C)C(=S)SC(NC(C)=O)C(Cl)(Cl)Cl (stereo unspecified),inactive: -3.85%
9,CC1CCNP(=O)(N(CCCl)CCCl)O1 (stereo unspecified),inactive: 0.656%
10,O=C(O)C(O)c1ccc(N(CCCl)CCCl)cc1 (stereo unspecified),inactive: -5.19%
11,CCCCOc1ccc(C(=O)NCC2(N3CCCCC3)CCCCC2)cc1OC,inactive: 1.06%
12,Cc1cc(SC(NC(=O)c2ccccc2)C(Cl)(Cl)Cl)nc(C(C)C)n1 (stereo unspecified),inactive: 5.71%
13,COP(=O)(OC)N1CC1c1ccccc1 (stereo unspecified),inactive: 4.96%
14,CCOC(=O)Nc1cccc([As](=O)(O)O)c1,inactive: 28.4%
15,O=P(Nc1ccccn1)(c1cccc2ccccc12)c1cccc2ccccc12,inactive: 8.33%
16,Cc1cc(SC(NC=O)C(Cl)(Cl)Cl)ncn1 (stereo unspecified),inactive: -9.62%
17,O=[As](O)(c1ccc(O)cc1)c1ccccc1O,inactive: 1.22%
18,C[As](=O)(O)c1cccc(C(=O)O)c1,inactive: 3.95%
19,COc1cc(C(=O)NCC2(N3CCOCC3)CCCCC2)ccc1OCC(C)C,inactive: 7.56%
20,O=[N+]([O-])c1ccc(-c2cc([N+](=O)[O-])c(O)c([N+](=O)[O-])c2)cc1,inactive: -5.11%
21,Cc1ccc2nc3c(c(C)c2c1)CC(C(Cl)Cl)S3 (stereo unspecified),inactive: -0.626%
22,Cc1ccc(OP(=O)(Nc2ccc([N+](=O)[O-])cn2)Oc2ccc(C)cc2)cc1,inactive: -12.7%
23,CC(C)c1ccc(OP(=O)(Nc2ccccn2)Oc2ccccc2F)cc1 (stereo unspecified),inactive: 15.6%
24,COC(=O)C1(C)COP(=O)(N2CCCCCC2)OC1 (stereo unspecified),inactive: 30%
25,ClCCSc1nnc(-c2cccnc2)o1,inactive: -16.7%
26,CCN(CC)C(=S)SC(NC=O)C(Cl)(Cl)Cl (stereo unspecified),inactive: 13.5%

row,SMILES,activity change
1,O=C(OC1CN2CCC1CC2)c1cccc2[nH]cnc12 (stereo unspecified),inactive: 17.3%
2,CC(C)NC(=O)NP(=O)(Oc1ccccc1)Oc1ccccc1,inactive: -8.65%
3,O=[N+]([O-])c1cc([N+](=O)[O-])c(-c2ccn[nH]2)s1,inactive: -17%
4,O=C(OC1CN2CCC1CC2)C12CC3CC(CC(C3)C1)C2 (stereo unspecified),inactive: 73.4%
5,Cc1cc(=O)[nH]c(N[N+](=O)[O-])n1,inactive: -8.93%
6,COc1ccc2nc(NP(=O)(c3ccccc3)c3ccccc3)sc2c1,inactive: 5.27%
7,COc1cc(I)ccc1[As](=O)(O)O,inactive: -0.808%
8,O=P1(N(CCCl)CCCl)Nc2ccccc2N1,inactive: -8.5%
9,COc1ccc(N/C(=N/P(=O)(N2CCOCC2)N2CCOCC2)N2CCOCC2)cc1,inactive: -8.66%
10,O=[N+]([O-])c1cc(Oc2ccc([N+](=O)[O-])cc2C(F)(F)F)cc([N+](=O)[O-])c1,inactive: 14.6%
11,COc1cc(C(=O)NCC2(N3CCOCC3)CCCCC2)cc(Cl)c1OC(C)C,inactive: 3.88%
12,O=[As](O)(O)c1cccnc1,inactive: -2.64%
13,CS(=O)(=O)c1ccc(Cl)c(NC(=O)COC(=O)C(O)(c2ccccc2)c2ccccc2)c1,inactive: -1.02%
14,O=C(OC1CN2CCC1CC2)c1ccc(Cl)cc1 (stereo unspecified),inactive: 4.89%
15,O=[As](O)(c1cccc(O)c1)c1cccc(O)c1,inactive: -9.91%
16,Cc1cccc(OCC(=O)OC2CN3CCC2CC3)c1 (stereo unspecified),inactive: 9.45%
17,CCCOP(=S)(Nc1nc(N)cc(=O)[nH]1)OCCC,inactive: 2.51%
18,Cc1ccc(NCCc2c([N+](=O)[O-])cc([N+](=O)[O-])cc2[N+](=O)[O-])cc1,inactive: -4.03%
19,Nc1cccc2c([As](=O)(O)O)cccc12,inactive: 8.01%
20,COc1cc(C2NCCC3(OCCO3)C2(C)C)cc(OC)c1OC (stereo unspecified),inactive: -6.66%
21,CCOP(=O)(Nc1cccc2ccccc12)OCC,inactive
22,CS(=O)(=O)c1cc([N+](=O)[O-])c2no[n+]([O-])c2c1,inactive: -13.1%
23,CCOP1(=S)c2c(C)nn(CCC#N)c2N=C(c2ccccc2F)N1C (stereo unspecified),inactive: -1.52%
24,O=P(Nc1nccs1)(c1ccccc1)c1nc2ccccc2s1 (stereo unspecified),inactive: -6.92%
25,Nc1ccccc1[As](=O)(O)c1ccccc1,inactive: -1.61%
26,O=C(O)COc1ccc([As](=O)(O)O)cc1[N+](=O)[O-],inactive: 7.67%

row,SMILES,activity change
1,NC(=O)Nc1ccc([As](=O)(O)O)cc1,inactive: 5.53%
2,CN(C)C(=O)c1cc([N+](=O)[O-])cc2c1-c1c(cc([N+](=O)[O-])cc1[N+](=O)[O-])C2=O,inactive: 0.947%
3,O=[N+]([O-])c1ccc2c(c1)nnn2O,inactive: 3.78%
4,CN(C(=O)Cc1ccc(Cl)c(Cl)c1)[C@H]1CC[C@@]2(CCCO2)C[C@@H]1N1CCCC1,inactive: 53.7%
5,N#CCCN(C(=O)COC(=O)C(O)(c1ccccc1)c1ccccc1)c1ccc(F)cc1,inactive: 14%
6,CN(C(=O)Cc1ccccc1)[C@@H]1CC[C@]2(CCCO2)C[C@H]1N1CCCC1,inactive: -11.5%
7,CCOP1(=S)c2c(C)nn(CCC#N)c2N=C(c2ccc(F)cc2)N1C (stereo unspecified),inactive: 18.4%
8,Cc1nn(-c2ccccc2)c2c1P(=O)(N1CCOCC1)N(C)C(c1ccccc1)=N2 (stereo unspecified),inactive: -1.91%
9,CC1CCC(C(C)C)C(OP(=O)(Nc2ccccn2)c2ccccc2)C1 (stereo unspecified),inactive: -21.1%
10,Cc1ccc(C(=O)OC2CN3CCC2CC3)cc1 (stereo unspecified),inactive: 4.92%
11,O=C(/C=C/c1ccccc1)OC1CN2CCC1CC2 (stereo unspecified),inactive: 9.07%
12,CCCC1OP(=O)(Nc2ccccc2)OCC1CC (stereo unspecified),inactive: -6%
13,CN(C)C1(CNC(=O)c2ccc(S(C)(=O)=O)cc2)CCCCC1,inactive: 12.5%
14,O=P1(Nc2ncccn2)COc2ccccc2OC1,inactive: 3.98%
15,O=P1(Nc2ccc(Br)cn2)COc2ccccc2OC1,inactive: 6.3%
16,NS(=O)(=O)c1cccc(NC(=O)COC(=O)C(O)(c2ccccc2)c2ccccc2)c1,inactive: -17.8%
17,Cc1ccc(OCC(=O)OC2CN3CCC2CC3)cc1 (stereo unspecified),inactive: 25.1%
18,O=[As](O)(c1cccs1)c1cccs1,inactive: -1.07%
19,Nc1cccc([As](=O)(O)c2ccccc2)c1,inactive: -4.92%
20,CN(CCCl)Cc1cc(Cl)c(NC2=NCCN2)c(Cl)c1,inactive: 36.9%
21,CCOP(=O)(Nc1ccc(C)cn1)OCC,inactive: 8.19%
22,O=P1(Nc2ccccn2)COc2ccccc2OC1,inactive: -0.505%
23,CCC1=CC2Cc3nc4ccc(Cl)cc4c(N)c3C(C1)C2 (stereo unspecified),inactive: -5.57%
24,CCOP(=O)(NC(=NC(C)c1ccccc1)NC(C)c1ccccc1)OCC (stereo unspecified),inactive: -29.8%
25,O=P1(N(CCCl)CCCl)NCCC(C(F)(F)F)O1 (stereo unspecified),inactive: -2.07%
26,Clc1n[nH]nc1-c1nn[nH][15n]1,inactive: 2.23%

row,SMILES,activity change
1,CC(C)(C)C(=O)NC(Sc1ncccn1)C(Cl)(Cl)Cl (stereo unspecified),inactive: 9.02%
2,COc1ccccc1CNC(=O)COC(=O)C(O)(c1ccccc1)c1ccccc1,inactive: 2.94%
3,CC1(CBr)Cn2c(nc3ccccc3c2=O)S1 (stereo unspecified),inactive: 2.97%
4,CC(C)/C=N\N=C(\N)N[N+](=O)[O-],inactive: -4.57%
5,CN(C(=O)Cc1ccc(Cl)c(Cl)c1)[C@@H]1CCCC[C@H]1N1CCCC1,inactive: 69.3%
6,CC(C)C(=O)NC(Sc1ccccc1)C(Cl)(Cl)Cl (stereo unspecified),inactive: 1.43%
7,O=P(Nc1nccs1)(c1ccccc1)c1ccccc1,inactive: 2.44%
8,c1nnnn1CCn1cnnn1,inactive: 28.9%
9,COc1ccc(N)c([N+](=O)[O-])c1[N+](=O)[O-],inactive: 2.83%
10,O=P(Nc1ccccn1)(c1ccc(Br)cc1)c1ccc(Br)cc1,inactive
11,CN(C)C1(CNC(=O)c2ccc(Cl)c(S(N)(=O)=O)c2)CCCCC1,inactive: -1.21%
12,O=P(Nc1nc2ccccc2s1)(c1ccccc1)c1ccccc1,inactive: -7.73%
13,C[C@H]1OP(=O)(Oc2ccccc2)[C@H](O)[C@H](O)[C@H]1N=[N+]=[N-] (stereo partly specified),inactive: -3.7%
14,O=[N+]([O-])c1ccc(O)c(/C=N/Nc2ccc([N+](=O)[O-])cc2[N+](=O)[O-])c1,inactive: -2.69%
15,CC(=O)NC(SC(=S)N(C)C)C(Cl)(Cl)Cl (stereo unspecified),inactive: 4.94%
16,O=[N+]([O-])c1ncn(CCn2cnc([N+](=O)[O-])n2)n1,inactive: 0.543%
17,O=[As](O)(c1ccccc1)c1ccc(O)cc1,inactive: 17.7%
18,Nc1ccc([As](=O)(O)c2ccc([N+](=O)[O-])cc2)cc1,inactive: 7.54%
19,C(Cc1nn[nH]n1)Cc1nn[nH]n1,inactive: -5.39%
20,O=C(OC1CN2CCC1CC2)c1cccc(Cl)c1 (stereo unspecified),inactive: 24%
21,CCNC(=S)/N=C(\N)N[N+](=O)[O-],inactive: 13.3%
22,O=C(NC1CCS(=O)(=O)C1)NP(=S)(Oc1ccccc1)Oc1ccccc1 (stereo unspecified),inactive: 4.09%
23,c1ccc(-c2nn[nH]n2)c(-c2nn[nH]n2)c1,inactive: -1.65%
